# Apparent affinities of Ab-95 variants for a coronavirus HR2 peptide

Data: MIT Lincoln Laboratory AlphaSeq set, Engelhart et al. 2022, doi:10.1038/s41597-022-01779-4, as distributed in FLAb.

Target peptide (SARS-CoV-2 spike, HR2 region): PDVDLGDISGINAS

Each scFv is VH, the linker GGGGSGGGGSGGGGS, VL, as in the parent Ab-95, and differs from it in the CDRs of the light chain only.
VH: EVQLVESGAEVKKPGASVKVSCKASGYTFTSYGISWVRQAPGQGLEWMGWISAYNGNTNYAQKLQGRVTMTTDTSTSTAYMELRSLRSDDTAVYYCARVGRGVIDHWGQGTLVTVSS
VL: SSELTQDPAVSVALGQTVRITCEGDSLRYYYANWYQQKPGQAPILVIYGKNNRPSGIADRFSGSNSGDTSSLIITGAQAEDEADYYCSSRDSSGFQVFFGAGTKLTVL

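The library (AAYL52) carries one to three amino acid substitutions per variant, with no insertions or deletions. Affinity was read by AlphaSeq, a pooled yeast mating assay with surface-displayed partners. After mating in shaken culture at 30 °C for 16 h, diploids were selected and their barcode pairs sequenced. Read counts were normalised to the haploid input and turned into Kd by a linear fit to BCL2-family pairs of known affinity, for each replicate. The assay was run in three technical replicates.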

Variants are written as CDR1, CDR2 and CDR3 of the light chain (limits as in the source). Parent: EGDSLRYYYAN, GKNNRPS, SSRDSSGFQVF.
Values are log10 of the apparent Kd in nM; lower means stronger binding.
"n.d." marks a missing value. The strain was present, yet no cells mated with the target were sequenced in that replicate, which points to weak or no binding.
Three control strains display no target. For library AAYL52, 28% of the pairings with them gave a signal, with a median of 3.91 and one signal in twenty below 2.90, so weak values seen in few replicates may be background. For each scFv, signals with the empty controls are counted beside the result, with their mean in brackets.

| CDR-L1 | CDR-L2 | CDR-L3 | log10 Kd (nM) by replicate | control signals |
|---|---|---|---|---|
| YFDSLRYDYAN | GKNNRPS | SSRDSSGFQVF | 3.26 / 3.13 / 2.88 | 3/9 (3.51) |
| EGDSLRYYYCN | GKGNRPS | SSRDSSGFQMF | n.d. / n.d. / n.d. | 2/9 (3.31) |
| EGDSLRYYYAN | GKNNRPS | NSRDHSGFQVF | n.d. / 2.86 / 2.62 | 0/9 |
| EGDSLNYYYAN | GKEIRPS | SSRDSSGFQVF | 3.12 / 2.41 / 2.12 | 2/9 (4.98) |
| EGDSLRHYYAN | GKNNRPS | SSRDSSEFQVF | 2.81 / 2.79 / 2.52 | 4/9 (4.08) |
| EGDWLRYYYAN | GKNNRPS | SQRDSSGFQVF | 3.23 / n.d. / n.d. | 1/9 (2.97) |
| EGDSLRYEYAN | GKNNRPS | SHRDSSGAQVF | 2.14 / 2.11 / 2.68 | 1/9 (4.46) |
| EGDSLRMYYAN | GKNNRPS | SSRDSWGFPVF | 2.74 / 2.84 / 2.80 | 2/9 (3.84) |
| EGDSLMYYYAN | GKNNRYS | SSRDSSGFQVM | n.d. / 4.27 / n.d. | 3/9 (3.95) |
| EGDSLRYYYDN | GKNNRPS | SSRDSNGFQVF | n.d. / 5.54 / n.d. | 2/9 (4.55) |
| KGDSLRYYYAN | GKNNYPS | SSRDSSGFNVF | 3.07 / 2.89 / 2.66 | 4/9 (4.13) |
| EGDHLRYYCAN | GKNNRLS | SSRDSSGFQVF | 3.34 / 3.51 / 3.55 | 2/9 (3.53) |
| EGDSLRYYYAN | GKNNRPH | SSRDSSGFQEF | 2.62 / 2.80 / 2.75 | 4/9 (3.72) |
| EFDSLRYYYAN | GKNNRPS | SSRSSSGFCVF | 3.39 / 4.68 / 2.81 | 4/9 (3.89) |
| EGDSLRYYIAN | YKNNRPS | SSRDSSGFQVF | n.d. / n.d. / n.d. | 0/9 |
| EGDSLRYYYAN | GKNNRPS | SERDSDGFNVF | n.d. / n.d. / n.d. | 1/9 (4.13) |
| EGDSLRYYYAN | GKNNRPA | HSRDSSGFQVA | 4.16 / 4.38 / n.d. | 3/9 (3.72) |
| KGDSLFYYYAN | GKNNRPS | SSRDSWGFQVF | 3.19 / 2.78 / 2.73 | 5/9 (3.67) |
| EGDLLRYYMAN | GKNNRPS | SSRDSCGFQVF | n.d. / n.d. / n.d. | 3/9 (3.95) |
| EGDSLRYEYAN | GKNHRGS | SSRDSSGFQVF | 1.72 / 1.51 / 1.00 | 7/9 (3.74) |
| EGDSLRPYYAN | GENNRPS | SSRDSSGFQVF | 2.39 / 2.22 / 2.26 | 6/9 (4.04) |
| EGDWLFYYYAN | GKNNRPS | SSTDSSGFQVF | n.d. / n.d. / n.d. | 3/9 (3.42) |
| EGDSLRYIYAA | GKNNRPS | YSRDSSGFQVF | 4.49 / 5.66 / 4.37 | 3/9 (3.93) |
| EGDSLCYYIAN | GKNNRPS | SSRDSSGFQVF | n.d. / 5.49 / n.d. | 4/9 (3.56) |
| EGDSLRYYYAT | GKNNRPS | SSRDSSGFQVF | 2.99 / 2.32 / 3.22 | 4/9 (4.02) |
| EGDYLRYYYAN | GENNRPS | SSRDSSGFQVF | 3.19 / 3.66 / 3.58 | 5/9 (3.76) |
| EGDSDRYYYAN | GKNNAPS | SSRDSHGFQVF | 4.09 / n.d. / n.d. | 0/9 |
| EGDSLRYYYAN | MKNNRPS | SSNDESGFQVF | n.d. / n.d. / 3.95 | 1/9 (4.48) |
| EGDSLRYYYAN | GHNNRPS | SSWDSSGFQVF | 3.84 / 3.94 / 4.25 | 2/9 (4.78) |
| EGDSERYYYYN | GHNNRPS | SSRDSSGFQVF | 3.14 / 2.58 / 3.39 | 2/9 (3.73) |
| EGDSLRDYYAP | GKNIRPS | SSRDSSGFQVF | 3.89 / 4.07 / 3.97 | 4/9 (3.87) |
| EHDSLRYYLAN | GKANRPS | SSRDSSGFQVF | 2.48 / 2.56 / 2.24 | 4/9 (4.01) |
| EGRSLRYKYAN | GKNNRPS | SSRDQSGFQVF | 1.76 / 1.74 / 1.33 | 7/9 (4.49) |
| EGDGLRYYYAN | GKTNRPS | SSDDSSGFQVF | 3.68 / 3.50 / n.d. | 3/9 (4.60) |
| EGDSLRYYYAT | LKNNRPS | SSRDSSFFQVF | n.d. / n.d. / n.d. | 1/9 (4.33) |
| EGDSLRHYYCN | GKNNRPS | SSRDSSGFLVF | 3.15 / 2.91 / n.d. | 5/9 (3.84) |
| EGDSLRAPYAN | GKNNRPS | ASRDSSGFQVF | 2.03 / 2.60 / 2.11 | 3/9 (4.01) |
| EGDSLRYYYAN | GKNNRPS | SSRDSIKFQVF | 2.25 / 1.90 / 2.83 | 0/9 |
| EGDSLRYRYAN | GKNERPS | SSRDSNGFQVF | 1.79 / 1.42 / 1.36 | 0/9 |
| EGDSLRCYYAN | GPNNRPS | SSRDSSGFQVF | 3.32 / 3.45 / 2.94 | 4/9 (3.78) |
| EGDSLRYVYAN | GKNWRPS | SSRDSSGIQVF | 2.47 / 3.13 / 3.15 | 3/9 (3.51) |
| EGDSLFYYYAN | GKNCRPS | SSRDSSKFQVF | n.d. / n.d. / 4.10 | 1/9 (3.43) |
| EGDSLRYYYTN | GKNNHPS | SSRDSSGFQVF | 2.98 / 3.39 / 2.87 | 4/9 (3.52) |
| EGDSWRYYYAN | GKNNRPS | SSRDSSTFEVF | n.d. / 4.34 / n.d. | 2/9 (3.82) |
| EGDSLRYYYAN | QKNNRPS | SSRDSSGFKVF | n.d. / 2.96 / 2.74 | 1/9 (2.59) |

Parent in this assay: reference entry 2.31, copy in this library 2.25.